Columns and labels:
[1] = system: esterase from the porcine liver; test: In vitro stability in porcine esterase solution (HPLC); type: in vitro ADME; settings: after two hours
Experimental: The HPLC analysis of samples at various time intervals from in vitro stability in different buffers and porcine esterase solution was performed on Shimadzu Prominence-i LC-2030C 3 D Plus equipped with RID20A. Detector chromatographic separation were carried out using Chromolith SpeedROD RP […], Merck. Spectra were analysed in 200–800 nm range with 1.2 nm resolution. The column was maintained at 30 °C and eluted under gradient conditions from 100% to 0% of eluent A over 3 min, at a flow rate of 5 ml min^−1. Eluent A: water/trifluoroacetic acid (0.1%, v/v); eluent B: acetonitrile/ trifluoroacetic acid (0.1%, v/v).
0.001 g of lyophilised powder of esterase from the porcine liver (Sigma-Aldrich, St. Louis, Missouri, USA) was reconstituted in 1.0 ml PBS buffer (0.01 M, pH 7.4) to make an aqueous porcine esterase solution (5 U/mL), and then pre-thermostated at 37 °C. To a test tube containing 1.85 ml of PBS buffer, 0.15 ml from the stock solution of the test compound was added. […] Pseudo-first-order rate constant for the hydrolysis was determined from the slope of linear plots of the natural logarithm (ln) of the AUC of the peak at time t (AUCt) against time. Half-life (t1/2) was calculated according to Equation (1): (1) t1/2 = ln 2/k were k is the pseudo-first-order rate constant. […]

[2] = system: human bronchial epithelium cells (BEAS-2B); test: MTT cell viability assay, BEAS-2B; type: cell-based; settings: BEAS-2B healthy lung epithelial cells, 72 h, vs. 5-FU at the same doses
Experimental: Experiments were performed on human prostate cancer cells (DU145; ATCC HTB-81), human lung cancer cells (A549; ATCC CCL-185-LUC2) and human bronchial epithelium cells (BEAS-2B; ATCC CRL-9609). Cells were grown in Dulbecco's modified Eagle's medium (DMEM) supplemented with 10% of heat-inactivated foetal bovine serum (FBS), 100 U/ml penicillin and 100 μg/ml streptomycin (Sigma-Aldrich, Steinheim, Germany). Cells were incubated at 37 °C in a humidified atmosphere with 5% CO2. […] Cells were seeded into 96-well plates at a density of 7,0 × 10[3] cells/well in 100 µl of culture medium. After 24 h, cells were treated with the compounds at three different concentrations (1 µM, 10 µM and 50 µM) for 72 h. Following treatments, 0.5 mg/ml of 3-[4,5-dimethylthiazol-2-yl]-2,5-diphenyltetrazolium bromide (MTT) (Sigma Aldrich) was added to each well and incubated for 4 h at 37 °C. Finally, DMSO was used to dissolve formazan salts and absorbance was measured at 570 nm in a microplate reader (Biotek Synergy-HT). Eight replicate wells were used for each group. Four independent experiments were performed.
. Furthermore, to compare the cytotoxic effect against cancer vs. normal cell lines, compound 3 has been tested towards the non-tumorigenic human lung epithelial cell line (BEAS-2B) selected as a healthy cell model (Figure 5). […].

Structure (SMILES): O=C(CCC(=O)OC(Cn1ccnc1)c1cccc(Br)c1)OCn1cc(F)c(=O)[nH]c1=O (centres unmarked) [Compound 3, 1‐[1‐(3‐bromophenyl)‐2‐(1H‐imidazol‐1‐yl)ethyl]4‐(5‐fluoro‐2,4‐dioxo‐1,2,3,4‐tetrahydropyrimidin‐1‐yl)methyl butanedioate]
- Percentage of compound remaining [1]: approximately 50%
- Effect on cell viability [2]: lower effect on BEAS-2B cells viability comparing to the 5-FU effects

Source: paper PMC8231349 (Journal of Enzyme Inhibition and Medicinal Chemistry, 2021)
